{
  "source": "patent US20190008957A1",
  "about": "“COMBINATION THERAPIES INCLUDING INHIBITORS OF THE EXTRACELLULAR DOMAIN OF E-CADHERIN” (The Research Foundation for The State of New York, priority 2012, published 2019)",
  "key": {"HER1, HER2, IGF-1R": {"tested_on": "HER1, HER2, IGF-1R", "assay": "Western blot of receptor phosphorylation in skin and oropharyngeal SCC cell lines", "format": "cell-based", "conditions": "PAM212 cells"}, "[1]": {"tested_on": "HER2-positive Trastuzumab-resistant SUM190PT cell line", "conditions": "cited from earlier work"}, "[2]": {"tested_on": "HER2 overexpressing BT474 cells", "conditions": "cited from earlier work"}},
  "data": [
    {"compound": "COc1cc2ncnc(Nc3ccc(F)c(Cl)c3)c2cc1OCCCN1CCOCC1", "note": "[Gefitinib]", "values": [
      {"measurement": "sEcad-induced HER1 phosphorylation", "setting": "HER1, HER2, IGF-1R", "result": "decreased"},
      {"measurement": "sEcad-induced HER2 phosphorylation (pHER2)", "setting": "HER1, HER2, IGF-1R", "result": "only minimal effects"},
      {"measurement": "phospho-IGF-1R levels", "setting": "HER1, HER2, IGF-1R; in the presence of sEcad, compared to corresponding controls", "result": "did not alter"}
    ]},
    {"compound": "Trastuzumab: recombinant humanized monoclonal antibody against the extracellular domain of HER2", "values": [
      {"measurement": "survivin and XIAP levels", "setting": "[1]", "result": "induced the upregulation of both survivin and XIAP"},
      {"measurement": "survivin expression", "setting": "[2]", "result": "little effect on steady-state survivin levels"}
    ]}
  ]
}
